Chains of the proteins cited; added tags and fusions are not shown.
UniProt P37238, whole entry: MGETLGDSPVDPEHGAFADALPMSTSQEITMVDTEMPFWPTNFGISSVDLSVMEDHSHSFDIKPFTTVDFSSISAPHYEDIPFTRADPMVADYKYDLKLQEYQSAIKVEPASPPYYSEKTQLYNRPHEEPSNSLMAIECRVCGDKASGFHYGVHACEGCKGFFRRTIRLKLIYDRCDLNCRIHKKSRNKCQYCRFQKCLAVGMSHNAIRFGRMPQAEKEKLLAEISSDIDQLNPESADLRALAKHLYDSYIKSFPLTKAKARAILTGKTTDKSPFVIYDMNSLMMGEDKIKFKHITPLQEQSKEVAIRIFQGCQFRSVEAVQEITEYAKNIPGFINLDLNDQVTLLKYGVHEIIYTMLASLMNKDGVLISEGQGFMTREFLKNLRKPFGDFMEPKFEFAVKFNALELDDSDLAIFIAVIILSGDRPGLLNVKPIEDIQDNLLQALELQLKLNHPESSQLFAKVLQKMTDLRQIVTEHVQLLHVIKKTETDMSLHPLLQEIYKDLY

In US8349862B2, “Pyridine derivatives for the treatment of metabolic disorders related to insulin resistance or hyperglycemia” (Piramal Healthcare Limited, priority 2006, dated 2013):

Molecular target: T1, Mouse PPARγ (Mus musculus, UniProt P37238)
T1 construct: endogenous in cells; host or cells: 3T3-L1 fibroblasts
Experiment: Mouse PPARγ assay (TransAM PPARγ ELISA, 3T3-L1 fibroblasts)
Assay type: cell-based
Conditions: 72 hrs, Compound 1 50 μM, Rosiglitazone 10 μM
Protocol: The assay was designed as in the reference, Blood, 104(5), 1361-8, 2004, the disclosure of which is incorporated by reference for the teaching of the assay.
3T3-L1 fibroblasts were seeded in 6-well plates at a density of 4×10^4 cells/well and cultured in DMEM containing 10% calf serum. […] The plates were incubated for 72 hrs at 37° C. in a CO2 incubator with fresh medium containing test substances added after first 48 hrs. After 72 hrs, the medium was removed; the cell layer was washed and processed for the PPARγ assay as per the instruction of the manufacturer (Active Motif, North America, California, USA). PPARγ activation was determined using 96-well ELISA assay as per the instruction manual (TransAM PPARγ. Active Motif, Cat 0.40196).

PPARγ activity (% of rosiglitazone): 100 % of rosiglitazone
SMILES: CN(CCOc1ccc(CC2SC(=O)NC2=O)cc1)c1ccccn1 (stereo not shown) [Rosiglitazone, reference compound]
